Yeast mating assay B: variants of the scFv Ab-14

Values reported by Li et al. 2023, doi:10.1038/s41467-023-39022-2 (FLAb copy).

All variants were tested on one target, the spike HR2 peptide PDVDLGDISGINAS (SARS-CoV-2).

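This is the validation round: designs drawn from the data on random variants, tested in the same kind of assay. Group labels follow the data file (En: ensemble of fine-tuned language models; GP: Gaussian process model; HC: hill climbing; Gen: genetic algorithm; Gibbs: Gibbs sampling; a sequence that several methods proposed may carry one label only). Affinity was read by AlphaSeq, a pooled yeast mating assay with surface-displayed partners. The frequency of each diploid, read from paired DNA barcodes, reflects how well the two displayed proteins bind. Scores were corrected for input abundance and mapped to Kd with protein pairs of known affinity run in the same pool. Mating was done six times.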

The variants keep the heavy chain, the linker and the frameworks of Ab-14 (scFv order VH, a (GGGGS)3 linker, VL).
VH: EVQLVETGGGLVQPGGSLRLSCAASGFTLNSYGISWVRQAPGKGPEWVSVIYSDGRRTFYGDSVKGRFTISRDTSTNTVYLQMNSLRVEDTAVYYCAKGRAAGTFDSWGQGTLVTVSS
VL: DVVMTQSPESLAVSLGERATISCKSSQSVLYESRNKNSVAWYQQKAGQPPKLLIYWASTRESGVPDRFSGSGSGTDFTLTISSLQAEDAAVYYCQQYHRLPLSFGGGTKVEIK

The parent's light chain CDRs are KSSQSVLYESRNKNSVA, WASTRES, QQYHRLPLS; each variant's own CDRs replace them letter for letter.
Variants here have more than six changes.
Kd is apparent (estimated from mating counts) and averaged on the log scale over replicates with a signal. Smaller is tighter.
An entry "no signal" has no value in the source: the pair was not observed among the diploids in any replicate. This suggests poor binding but is not conclusive.
The authors' rule: three or more of the six replicates give a measured affinity, fewer mean a poor binder.
Background: pairings of all light chain designs with three empty control strains gave a value in 4% of cases (median 430 nM, 5th percentile 38 nM). Values in that range, when seen in few replicates, are hard to tell from nonspecific mating.
A sequence measured in both rounds can read differently, since the two assays cover different ranges.

With TISQMLLMQTSHKNSVA, GEETRYS, QQYARLPLS [En_HC] the result was 1.1 nM (6 of 6 replicates).
With HISQSVGMTIRNKNSVA, ENSTRED, QQYDRLPLS [En_HC] the result was 300 nM (2 of 6 replicates).
With LISQSELLESRNHNSVA, DASTRMD, QQYHRLPLS [GP_Gibbs] the result was 1.5 nM (6 of 6 replicates).
With NLSWKTEMQNMDYYAVA, QTEQREA, QQYAILPLS [En_Gibbs] the result was 2.2 nM (6 of 6 replicates).
With KLVQFMNRGTHHTSNIA, DAQNRID, QQYYRLPLA [En_Gen] the result was 4.1 nM (6 of 6 replicates).
With KLSFSCLYESAMKNSVA, NASTRYS, QQYHRLPLS [GP_Gibbs] the result was 1.9 nM (6 of 6 replicates).
With RIMYEYDKNVDKYNAVA, QAHIRAQ, QFYNRLPLS [En_Gibbs] the result was 1.1 µM (3 of 6 replicates).
With KFEWSWLYESRNCNSVA, NASTRES, QQYWRLPLS [GP_Gibbs] the result was 2.2 nM (6 of 6 replicates).
With VLAMSSYGKSRHDSNIA, GANMLSQ, QQYARLPFA [En_Gibbs] the result was 6.8 nM (6 of 6 replicates).
With KLTSVTGQEKVRGNNVA, EMATREN, QQYNRLPLS [En_Gen] the result was 860 pM (6 of 6 replicates).
With KLSQSMLYEERNKNNVA, SASHREH, QQYHRLPLS [GP_Gibbs] the result was 530 pM (6 of 6 replicates).
With MLSEVLHMLGVQKNSIA, DLVLRAN, QQYHRLPLA [En_Gen] the result was no signal (0 of 6 replicates).
With NISESMFYQSRNKNNIA, EMSTRER, QHYHRLPLS [En_HC] the result was 1.8 nM (6 of 6 replicates).
With KFSQSWWYESRVKNNVA, NASQRES, QCYHRLPLS [GP_Gibbs] the result was 6.4 nM (6 of 6 replicates).
With KFAYQADMYGAQCNNVA, HADIREP, QQYFKLPLN [En_Gibbs] the result was 4.4 nM (6 of 6 replicates).
With KIGATLNTLYEAKNNVA, DLVEREN, QQYHRLPLS [En_Gen] the result was 7.0 nM (6 of 6 replicates).
With KLMDNPWVEDKYRNNIA, DINVKAD, QHYHRLPLL [En_Gibbs] the result was 200 nM (6 of 6 replicates).
With RIQDHMAVGEMRHSSIA, EESTRMD, QQYSRLPLA [En_Gibbs] the result was 2.8 nM (6 of 6 replicates).
With KIEQSVHYEDRNINSVA, NASQRYS, QAYHRLPLS [GP_Gibbs] the result was 4.5 nM (6 of 6 replicates).
With IVSQLMLWGYHAKNSIA, EAETRLN, QQYDRLPLF [En_Gen] the result was 9.5 nM (6 of 6 replicates).
With TLSMVTGHMSVSKNNVA, EMETREE, QQYDRLPLS [En_Gen] the result was 7.7 nM (6 of 6 replicates).
With MISDLTMYGSRNVNSVA, DLSERGS, QQYHRLPLS [En_HC] the result was 2.1 nM (6 of 6 replicates).
With KLSQVTEYESRNKNSVA, DLTTRGS, QDYHRLPLS [En_HC] the result was 1.2 nM (6 of 6 replicates).
With KLTQTMRFEQKKKNNIA, EVTTRSK, QQYARLPLA [En_Gen] the result was 1.3 µM (4 of 6 replicates).
With KLASVTGTEKVRGNNVA, EMETREK, QQYNRLPLS [En_Gen] the result was 1.8 nM (6 of 6 replicates).
With HISMMVGTKGYNKGSVA, NAETRED, QQYHRLPLS [En_HC] the result was 1.0 nM (6 of 6 replicates).
With TIGQVFNGESRNRNSVA, QASTRES, QSYDRLPLS [En_HC] the result was 12 nM (6 of 6 replicates).
With KIQQEGEYEDRNKNSVA, SASTRCP, QQYHRLPLS [GP_Gibbs] the result was 850 pM (6 of 6 replicates).
With TLLYGPTEARKDKHNIA, DMSEREE, QQYHLLPLI [En_Gibbs] the result was 12 nM (6 of 6 replicates).
With MISQTFLIGMKAKNSVA, QTSTRES, QQYDRLPLS [En_HC] the result was 5.6 nM (6 of 6 replicates).
With KMSQSWLGQSWNKNSVA, EASQRES, QQYHRLPLS [GP_Gibbs] the result was 720 pM (6 of 6 replicates).
With QLSHYKHENMGKWQNVA, EMTIREK, QQYAHLPLN [En_Gibbs] the result was 15 nM (6 of 6 replicates).
With KWSQSWLMESMNSNSVA, HASQRES, QQYHRLPLS [GP_Gibbs] the result was 1.6 nM (6 of 6 replicates).
With KIGHGLTTESFNKNSVA, QTETRES, QHYHRLPLS [En_HC] the result was 500 nM (2 of 6 replicates).
With MLGDTVMEGMYSRNSVA, QEETRAE, QQYHHLPLS [En_HC] the result was 5.8 nM (6 of 6 replicates).
With HLSSMSLTETVKSRNVA, ENNTREQ, QQYDRLPLS [En_Gen] the result was 20 nM (5 of 6 replicates).
With KWSQLVGEESRNKSSVA, NASTREE, QQYHRLPLS [GP_Gibbs] the result was 24 nM (6 of 6 replicates).